The values below come from patent US9517988B2 (Sichuan Haisco Pharmaceutical Co., Ltd., priority 2013, dated 2016).

In general, LD50 refers to the dose at which mortality reaches 50%.

The nature of data set [1]: Righting reflex experiment on mice. Conditions: both, ICR, mouse, in vivo, iv. As for the experimental part:
LD5 (5% lethal dose): dose required to cause 5% of mice to die in a test.
If a normal animal was able to immediately turn its body to normal upright position after being pushed over or made lying on its back, such a reflex was determined as the righting reflex. Otherwise, loss of the righting reflex and the time of loss were recorded, and a reflex recovery time was recorded when the animal restored the righting reflex. The period from finishing of drug administration until loss of the righting reflex was recorded as the anesthesia induction time, and the period from loss of the righting reflex until recovery of the righting reflex was recorded as the anesthesia maintenance time.
TI (therapeutic index, i.e. LD50/ED50), SI (safety index, i.e. LD5/ED95). […]
Indicators such as median effective dose (ED50), median lethal dose (LD50), therapeutic index (TI, i.e. LD50/ED50), safety index (SI, i.e. LD5/ED95), anesthesia induction time, anesthesia maintenance time, and maximum tolerated dose (MTD) were used to evaluate the effect and safety of anesthesia. […] Upon intravenous injection, the time of loss of the righting reflex was recorded. The period from finishing of drug administration until loss of the righting reflex was recorded as the anesthesia induction time, and the period from loss of the righting reflex until recovery of the righting reflex was recorded as the anesthesia maintenance time. […]

Data set [2] in a line: Righting reflex experiment on mice with prodrugs. The conditions noted are these: both sexes, ICR, mouse, in vivo, intravenous injection, prodrugs in physiological saline. Here is the method:
After adapting to the laboratory environment, the SPF-grade ICR mice were fasted for 12 hours.

For `CC(C)c1cccc(C(C)C)c1O` [Propofol, reference compound], the LD50 in data set [1] and in data set [2] was 31.3 mg/kg in each case.
